Results reported in patent publication US20050054531A1, “N-(phosphonomethyl) glycine (glyphosate) salt, a preparation process thereof, a concentrate composition and a phytotoxic formulation comprising it, and a method to combat weeds in a crop with a formulation thereto” (priority 2003, published 2005).

Assay: Physical properties of the salt (solubility, pH of solution)
Assay type: physicochemical
Conditions: 10% w/w in water

For “1H-1,2,4-triazole-3-yl-amine N-(phosphonomethyl)-glycine salt [Glyphosate triazolamine salt]”, the “pH of the aqueous 10% w/w solution of the salt” value was 3.2.
